Results on one substance are retold here after patent publication US20260097126A1, “PHARMACEUTICAL FORMULATIONS AND METHODS FOR THE TREATMENT OF METABOLIC AND LIVER DISORDERS” (priority 2022, published 2026).

Data set [1] is described as follows: Another pharmacokinetic study using tirzepatide. In kind it is in vivo.
Data set [2] deals with T1, GIP receptor (Homo sapiens, UniProt P48546).
T1 sequence (P48546 22-466): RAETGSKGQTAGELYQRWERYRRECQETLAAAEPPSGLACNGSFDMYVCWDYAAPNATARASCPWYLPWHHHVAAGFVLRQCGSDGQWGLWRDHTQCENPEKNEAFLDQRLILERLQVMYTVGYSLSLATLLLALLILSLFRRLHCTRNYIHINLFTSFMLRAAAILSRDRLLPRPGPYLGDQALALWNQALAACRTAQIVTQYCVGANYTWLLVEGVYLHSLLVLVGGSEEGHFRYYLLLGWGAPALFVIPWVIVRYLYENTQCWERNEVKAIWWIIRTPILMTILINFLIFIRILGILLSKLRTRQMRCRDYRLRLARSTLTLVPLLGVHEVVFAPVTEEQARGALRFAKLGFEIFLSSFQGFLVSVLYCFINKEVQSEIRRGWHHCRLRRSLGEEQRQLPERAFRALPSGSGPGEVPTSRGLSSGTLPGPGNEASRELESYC
Briefly: TagLite binding assay, GIP receptor. Conditions: read-out: GIP receptor IC 50.

Data set [3] concerns the target T1, GIP receptor. Description: HSA modulated binding assay, GIP receptor.

Broadly, the half-life is the time needed for the level to fall by half in the phase considered. Regarding tirzepatide, the half-life in data set [1] (tirzepatide 0.2 mg/kg in 0.1% bovine serum albumin in phosphate buffered saline solution) was 66.2 h; in data set [1] (tirzepatide 0.2 mg/kg in 40% propylene glycol and 60% 10 mM pH 6 citrate buffer solution), 59.8 h. Besides, the IC50 in data set [2] was 188 nM; in data set [3] (0% human serum albumin, read-out: GIP receptor IC 50, 0% HSA), 316 nM; in data set [3] (read-out: GIP receptor IC 50, 2% HSA, 2% human serum albumin), 1840 nM.
